The values below come from ChEMBL document CHEMBL4000215, “A structure-guided optimization of pyrido[2,3-d]pyrimidin-7-ones as selective inhibitors of EGFRL858R/T790M mutant with improved pharmacokinetic properties” (Eur J Med Chem, 2017).

Sequences of proteins named here, by UniProt entry; tags and fusion partners are left off. Residues count along the entry.
UniProt P00533, 25-1210 T790M/L858R limits assumed: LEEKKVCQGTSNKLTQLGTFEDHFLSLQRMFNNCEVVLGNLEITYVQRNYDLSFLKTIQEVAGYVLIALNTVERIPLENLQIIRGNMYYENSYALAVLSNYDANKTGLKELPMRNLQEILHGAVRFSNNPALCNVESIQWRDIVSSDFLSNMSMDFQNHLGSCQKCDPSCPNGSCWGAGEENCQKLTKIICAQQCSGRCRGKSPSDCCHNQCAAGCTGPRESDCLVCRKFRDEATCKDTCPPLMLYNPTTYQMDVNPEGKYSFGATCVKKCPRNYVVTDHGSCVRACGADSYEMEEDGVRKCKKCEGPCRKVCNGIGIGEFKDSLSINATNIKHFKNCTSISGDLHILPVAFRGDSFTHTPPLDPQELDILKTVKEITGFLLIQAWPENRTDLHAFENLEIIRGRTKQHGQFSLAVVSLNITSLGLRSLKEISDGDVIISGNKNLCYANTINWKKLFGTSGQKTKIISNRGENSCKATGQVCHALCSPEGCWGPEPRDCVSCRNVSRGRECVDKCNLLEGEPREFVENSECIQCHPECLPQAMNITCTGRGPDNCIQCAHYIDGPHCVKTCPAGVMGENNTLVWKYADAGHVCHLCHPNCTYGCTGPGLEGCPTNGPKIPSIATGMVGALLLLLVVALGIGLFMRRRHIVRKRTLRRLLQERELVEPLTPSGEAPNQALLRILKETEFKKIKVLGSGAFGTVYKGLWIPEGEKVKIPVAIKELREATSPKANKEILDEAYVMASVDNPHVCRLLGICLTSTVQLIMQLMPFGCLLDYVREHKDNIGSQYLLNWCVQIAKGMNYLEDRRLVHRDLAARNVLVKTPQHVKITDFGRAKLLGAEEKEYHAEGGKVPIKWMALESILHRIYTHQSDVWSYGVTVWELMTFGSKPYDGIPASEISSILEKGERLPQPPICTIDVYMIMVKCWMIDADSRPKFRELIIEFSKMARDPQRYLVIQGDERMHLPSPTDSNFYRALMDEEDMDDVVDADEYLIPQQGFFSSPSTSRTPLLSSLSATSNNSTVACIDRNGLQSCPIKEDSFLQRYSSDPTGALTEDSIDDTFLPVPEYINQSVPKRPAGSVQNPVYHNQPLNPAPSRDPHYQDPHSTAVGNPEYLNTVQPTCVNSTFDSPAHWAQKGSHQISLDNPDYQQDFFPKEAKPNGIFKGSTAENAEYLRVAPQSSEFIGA

Broadly, the IC50 is the point on the concentration scale where inhibition reaches its midpoint. Read a low IC50 as greater potency in that assay.

The target in the test is Epidermal growth factor receptor (Homo sapiens, UniProt P00533, L858R/T790M). Nature of the test: Inhibition of N-terminal 6His/TEV protease cleavage site-tagged human EGFR L858R/T790M double mutant (696 to 1022 residues) using poly (Glu,Tyr) 4:1 as substrate after 1 hr by ELISA. A general note: ELISA stands for enzyme-linked immunosorbent assay.

Turning to `C=CC(=O)N1CC[C@@H](n2c(=O)cc(C)c3cnc(Nc4ccc(N5CCN(C)CC5)cc4OC)nc32)C1`, the IC50 was determined as 0.436 µM. As for `C=CC(=O)N1CC[C@H](n2c(=O)cc(C)c3cnc(Nc4ccc(N5CCN(C)CC5)cc4OC)nc32)C1`, the figure is 0.0918 µM.
